The values below are quoted from earlier work in US20190336490A1, “COMPOSITIONS AND METHODS FOR INCREASING REMYELINATION” (Frequency Therapeutics, Inc., priority 2018, published 2019).

Amino acid sequences for entries named in this document (tags omitted).
UniProt P11229, whole entry: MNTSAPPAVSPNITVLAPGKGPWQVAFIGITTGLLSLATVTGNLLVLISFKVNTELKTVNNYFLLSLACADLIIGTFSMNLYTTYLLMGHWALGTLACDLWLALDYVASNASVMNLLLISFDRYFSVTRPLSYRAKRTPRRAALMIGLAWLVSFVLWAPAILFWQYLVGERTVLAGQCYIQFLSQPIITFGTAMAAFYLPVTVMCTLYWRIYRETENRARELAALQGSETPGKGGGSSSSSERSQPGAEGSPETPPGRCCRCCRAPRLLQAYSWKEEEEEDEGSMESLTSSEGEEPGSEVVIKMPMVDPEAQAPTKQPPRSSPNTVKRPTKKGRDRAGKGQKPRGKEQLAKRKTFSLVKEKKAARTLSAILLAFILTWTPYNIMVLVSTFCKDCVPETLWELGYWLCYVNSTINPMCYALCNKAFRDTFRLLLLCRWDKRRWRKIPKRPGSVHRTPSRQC

This is a selection: effects in other tests are not listed, and their absence says nothing.

This data set addresses muscarinic M1 receptor (Homo sapiens, UniProt P11229). The settings on record: cited from earlier work.

`CC(C)N1CCC(N(C(=O)Cc2ccccc2)c2ccc(Cl)cc2)CC1`: the “In vitro M1 (Conc)” value is less than 10 µM.
